Source: patent publication US9242970B2 (ACTELION PHARMACEUTICALS LTD., priority 2010, dated 2016)
Where two headings read alike, the source gives them in different places.

The chains behind the UniProt entries cited, without tags or fusion partners.
UniProt O43613, whole entry: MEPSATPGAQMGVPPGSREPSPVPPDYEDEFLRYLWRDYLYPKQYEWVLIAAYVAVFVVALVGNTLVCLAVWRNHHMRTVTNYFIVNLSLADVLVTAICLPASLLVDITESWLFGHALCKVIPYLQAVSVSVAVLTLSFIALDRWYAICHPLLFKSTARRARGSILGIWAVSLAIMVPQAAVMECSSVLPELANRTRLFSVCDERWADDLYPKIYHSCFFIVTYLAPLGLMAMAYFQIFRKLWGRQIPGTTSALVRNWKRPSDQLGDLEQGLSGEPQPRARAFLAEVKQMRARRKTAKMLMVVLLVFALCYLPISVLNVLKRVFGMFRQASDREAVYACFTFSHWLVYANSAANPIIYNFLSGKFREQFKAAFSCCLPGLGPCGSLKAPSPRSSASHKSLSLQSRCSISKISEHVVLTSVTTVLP
UniProt O43614, whole entry: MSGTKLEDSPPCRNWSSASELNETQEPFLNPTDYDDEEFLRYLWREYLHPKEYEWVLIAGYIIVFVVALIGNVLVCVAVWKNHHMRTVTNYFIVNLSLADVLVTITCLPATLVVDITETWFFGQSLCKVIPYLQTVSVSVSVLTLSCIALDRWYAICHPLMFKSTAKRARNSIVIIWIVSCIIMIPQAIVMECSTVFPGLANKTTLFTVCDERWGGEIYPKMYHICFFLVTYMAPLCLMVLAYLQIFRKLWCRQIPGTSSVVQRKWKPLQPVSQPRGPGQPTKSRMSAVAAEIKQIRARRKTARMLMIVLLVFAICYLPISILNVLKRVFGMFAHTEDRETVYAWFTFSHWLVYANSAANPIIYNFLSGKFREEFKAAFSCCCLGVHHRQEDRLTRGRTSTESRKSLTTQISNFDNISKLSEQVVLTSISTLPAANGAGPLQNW

Key:
[1] = molecular target: human orexin-1 receptor (Homo sapiens (Human), UniProt O43613); assay: In vitro assay: intracellular calcium measurements (FLIPR), antagonistic activity; format: cell-based; settings: CHO cells, 3 nM orexin-A, marked values are geometric means of n = 2-6, read-out: IC50 OX1
Protocol: (§1) In Vitro Assay: Intracellular Calcium Measurements:
(§2) Chinese hamster ovary (CHO) cells expressing the human orexin-1 receptor and the human orexin-2 receptor, respectively, are grown in culture medium (Ham F-12 with L-Glutamine) containing 300 µg/ml G418, 100 U/ml penicillin, 100 µg/ml streptomycin and 10% heat inactivated fetal calf serum (FCS). The cells are seeded at 20,000 cells/well into 384-well black clear bottom sterile plates (Greiner). The seeded plates are incubated overnight at 37° C. in 5% CO2.
(§3) Fluorescence is measured for each well at 1 second intervals, and the height of each fluorescence peak is compared to the height of the fluorescence peak induced by 3 nM orexin-A with vehicle in place of antagonist. […] Optimized conditions were achieved by adjustment of pipetting speed and cell splitting regime. The calculated IC50 values may fluctuate depending on the daily cellular assay performance. Fluctuations of this kind are known to those skilled in the art.

[2] = molecular target: human orexin-2 receptor (Homo sapiens (Human), UniProt O43614); assay: as above; format: cell-based; settings: CHO cells, 3 nM orexin-A, compound incubation 120 min; marked values are geometric means of n = 2-6; read-out: IC50 OX2
Protocol: as §1, §2, §3

[3] = compound incubation time of 10 min

| IC50 [1, 3] [nM] | IC50 [2] [nM] | IC50 ([1]; compound incubation 120 min) [nM] | SMILES |
| --- | --- | --- | --- |
| 299 |  |  | COc1cccc(OC)c1[C@@H]1C[C@@H](F)C(=O)N1Cc1ccc(OC(F)(F)F)cc1 (racemic) [Example 255, rac-(3R*,5S*)-5-(2,6-dimethoxyphenyl)-3-fluoro-1-(4-(trifluoromethoxy)benzyl)pyrrolidin-2-one] |
| 927 |  |  | COc1cccc(OC)c1[C@@H]1C[C@@H](O)C(=O)N1Cc1ccc(OC(F)(F)F)cc1 (racemic) [Example 258, rac-(3R*,5S*)-5-(2,6-dimethoxyphenyl)-3-hydroxy-1-(4-(trifluoromethoxy)benzyl)pyrrolidin-2-one] |
| 75 |  |  | COc1cccc(OC)c1[C@@H]1C[C@H](F)C(=O)N1Cc1ccc(OC(F)(F)F)cc1 (racemic) [Example 260, rac-(3S*,5S*)-5-(2,6-dimethoxyphenyl)-3-fluoro-1-(4-(trifluoromethoxy)benzyl)pyrrolidin-2-one] |
|  | 397 |  | O=C1[C@@H](Cl)C[C@@H](c2cccc3c2OCCO3)N1Cc1ccc(OC(F)(F)F)cc1 (racemic) [Example 307, rac-(3S*,5S*)-3-chloro-5-(2,3-dihydrobenzo[b][1,4]dioxin-5-yl)-1-(4-(trifluoromethoxy)benzyl)pyrrolidin-2-one] |
|  | 2150 |  | COc1cc(F)ccc1[C@@H]1C[C@@H](Cl)C(=O)N1Cc1ccc(OC(F)(F)F)cc1 (racemic) [Example 323, rac-(3R*,5S*)-3-chloro-5-(4-fluoro-2-methoxyphenyl)-1-(4-(trifluoromethoxy)benzyl)pyrrolidin-2-one] |

More lines, now with the values behind:

| SMILES | IC50 [1, 3] [nM] | IC50 [2] [nM] | IC50 ([1]; compound incubation 120 min) [nM] |
| --- | --- | --- | --- |
| COc1cccc(OC)c1[C@@H]1C[C@H](O)C(=O)N1Cc1ccc(OC(F)(F)F)cc1 (racemic) [Example 253, rac-(3S*,5S*)-5-(2,6-dimethoxyphenyl)-3-hydroxy-1-(4-(trifluoromethoxy)benzyl)pyrrolidin-2-one] | 899 |  |  |
| COc1cccc(OC)c1[C@@H]1C[C@H](F)C(=O)N1Cc1ccc2oc3ccccc3c2c1 (racemic) [Example 367, rac-(3S*,5S*)-1-(dibenzo[b,d]furan-2-ylmethyl)-5-(2,6-dimethoxyphenyl)-3-fluoropyrrolidin-2-one] |  |  | 3 |
| COc1cccc(F)c1[C@@H]1C[C@H](F)C(=O)N1Cc1ccc2oc3ccccc3c2c1 (racemic) [Example 406, rac-(3S*,5S*)-1-(dibenzo[b,d]furan-2-ylmethyl)-3-fluoro-5-(2-fluoro-6-methoxyphenyl)pyrrolidin-2-one] |  |  | 81 |
| COc1cccc(F)c1[C@@H]1C[C@H](Cl)C(=O)N1Cc1ccc2oc3ccccc3c2c1 (racemic) [Example 408, rac-(3S*,5S*)-3-chloro-1-(dibenzo[b,d]furan-2-ylmethyl)-5-(2-fluoro-6-methoxyphenyl)pyrrolidin-2-one] |  |  | 86 |
| COc1cccc(OC)c1C1CCCC(=O)N1Cc1ccc2ccccc2n1 (stereo not shown) [Example 4, 6-(2,6-dimethoxyphenyl)-1-(quinolin-2-ylmethyl)piperidin-2-one] |  | 58 |  |
